Measured values as given in paper PMC9323733, “Efficacy of Vafidemstat in Experimental Autoimmune Encephalomyelitis Highlights the KDM1A/RCOR1/HDAC Epigenetic Axis in Multiple Sclerosis” (Pharmaceutics, 2022).

By UniProt entry, the sequences of proteins in these tests, tags left out.
UniProt P21453, whole entry: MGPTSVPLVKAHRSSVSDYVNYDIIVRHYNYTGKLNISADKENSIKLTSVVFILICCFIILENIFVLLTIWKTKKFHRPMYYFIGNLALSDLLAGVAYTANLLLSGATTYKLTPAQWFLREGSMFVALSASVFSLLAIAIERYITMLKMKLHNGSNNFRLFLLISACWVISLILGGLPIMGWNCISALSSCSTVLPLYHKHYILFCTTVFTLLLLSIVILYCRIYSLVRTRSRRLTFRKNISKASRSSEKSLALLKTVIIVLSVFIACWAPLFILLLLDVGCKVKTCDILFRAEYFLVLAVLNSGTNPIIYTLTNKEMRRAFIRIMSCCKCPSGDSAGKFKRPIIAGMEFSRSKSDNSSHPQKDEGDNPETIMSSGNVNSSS

Tests used:
[1] = test system: spinal cord of EAE mice; assay: EAE, inflammatory mediators in spinal cord protein extracts (ELISA); conditions: day 26; ORY-2001 0.5 mg/kg, ORY-LSD1 180 µg/kg
[2] = test system: spleen and lymph nodes of EAE mice; assay: EAE, cell number in spleen and lymph nodes, flow cytometry of CD4 T cells; conditions: day 26; ORY-2001 0.5 mg/kg, ORY-LSD1 180 µg/kg
[3] = test system: spleen cells of EAE mice; assay: EAE, autoreactive response of spleen cells from treated mice (proliferation, cytokines/chemokines); conditions: day 26; ORY-2001 0.5 mg/kg, ORY-LSD1 180 µg/kg
[4] = test system: spinal cord of EAE mice; assay: EAE, histopathology of spinal cord (demyelination plaques, infiltration); conditions: day 26; lumbar and cervical; ORY-2001 0.5 mg/kg, ORY-LSD1 180 µg/kg
[5] = test system: C57BL/6 mice with chronic EAE; assay: Chronic EAE induced by MOG35–55, clinical score; type: in vivo, mouse
[6] = target: human S1P1 receptor (Homo sapiens, UniProt P21453); assay: CellKey impedance assay in CHO cells, agonistic and antagonistic effect; conditions: GPCR based impedance assays

## Fc1ccccc1C1CC1NC1CCNCC1 (stereo not drawn)
[1]
  IFNγ, IL-17 and IP-10 levels in spinal cord: no significant changes
  IL-4 levels in spinal cord: significant increase in the levels of IL-4
[2]
  number of immune cells in spleen and lymph nodes: significant increase in the number of immune cells
[3]
  IFNγ, IL-17 and IP-10 levels, MOG35–55-specific recall response: produced equivalent levels of IFNγ, IL-17, and IP-10
  IL-4 production by spleen cells: increased with both treatments
[4]
  plaques with inflammatory infiltrates and areas of demyelination: remarkable decrease in the number and size of demyelinating plaques
[5]; EAE experiment 1 (severe), p.o. ORY-2001 1 mg/kg, ORY-LSD1 180 µg/kg
  effect on disease severity: did not significantly reduce disease severity
[5]; EAE experiment 1 (severe), p.o. ORY-2001 1 mg/kg, ORY-LSD1 180 µg/kg (maximum clinical score ≥ 4.0)
  animals with severe manifestations/signs of the disease: 40%
[5]; EAE experiment 1 (severe), p.o. ORY-2001 1 mg/kg, ORY-LSD1 180 µg/kg, days 12-16 and 19-23
  mean maximum clinical score: 3.0
[5]; EAE experiment 2
  mice with no or only mild clinical signs at the end of the study: 60%
[5]; EAE experiment 2 (mild), p.o. ORY-2001 0.05, 0.5, 1 mg/kg, ORY-LSD1 90, 180 µg/kg, rasagiline 3 mg/kg
  effect on clinical course / disease severity: did not significantly reduce disease severity
[5]; EAE experiment 2, highest dose tested
  animals with severe signs (maximum clinical score 3.5–6): 10%
[5]; EAE sub-chronic phase, to day 26, p.o. ORY-2001 0.5 mg/kg, ORY-LSD1 180 µg/kg
  clinical signs at the peak of the disease: reduced the clinical signs
[5]; EAE sub-chronic phase, ORY-LSD1 180 µg/kg
  animals with moderate clinical score: 30%
[6]
  agonist and antagonist activity at S1P1 receptor: neither ORY-2001 nor ORY-LSD1 (at concentrations well above those needed to fully inhibit KDM1A) showed any activity
